Test results as given in PubChem BioAssay AID628 (Vanderbilt High Throughput Screening Facility, 2007).
The list shows a part of the results, in another mix than the full data. Some structures have more than one record in an assay (separate samples or runs), and their calls can disagree. Calls of active or inactive are those of the source.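 The calls were made as follows: active = calcium fluorescence response, raw or row-and-column corrected B-score, differing from the plate sample mean either way at a set confidence level, mostly lower; inactive = the rest.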

Protein sequences, listed by entry. Tags and fused reporters are not part of them. Lines headed by an entry give the natural chain unless they say otherwise; changes in a name come on top.
UniProt P08482: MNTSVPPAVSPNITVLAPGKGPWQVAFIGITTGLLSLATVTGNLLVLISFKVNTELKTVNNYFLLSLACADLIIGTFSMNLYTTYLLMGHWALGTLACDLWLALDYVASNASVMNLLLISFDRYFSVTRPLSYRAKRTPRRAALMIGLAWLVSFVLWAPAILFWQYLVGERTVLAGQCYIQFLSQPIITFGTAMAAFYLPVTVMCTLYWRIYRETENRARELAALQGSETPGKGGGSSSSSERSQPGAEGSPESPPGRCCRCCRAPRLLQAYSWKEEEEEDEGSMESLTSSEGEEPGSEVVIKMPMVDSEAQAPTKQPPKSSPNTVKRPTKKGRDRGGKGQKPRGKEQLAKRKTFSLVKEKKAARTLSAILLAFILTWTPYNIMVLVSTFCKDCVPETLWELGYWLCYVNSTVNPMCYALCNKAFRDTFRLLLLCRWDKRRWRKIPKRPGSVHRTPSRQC

Molecular target: Muscarinic acetylcholine receptor M1 (Rattus norvegicus) (UniProt P08482)
Test: antagonists of rat M1 muscarinic receptor (AID 628)
Conditions: CHO-M1 cells, Fluo-4 calcium, ACh EC80 antagonist mode; at 10 µM; stronger effect = lower value

B-score, active:
CNCCCN1c2ccccc2CCc2ccccc21 -14.8
Cc1ccccc1C(OCCN(C)C)c1ccccc1 (stereo not drawn) -13.7
OC(CCN1CCCCC1)(c1ccccc1)C1CCCCC1 (stereo not drawn) -15.9
CN1CCC(=C2c3ccccc3CC(=O)c3sccc32)CC1 -15.4
OCCN1CCN(CCCN2c3ccccc3Sc3ccc(Cl)cc32)CC1 -5.8
COc1cc2nc(N3CCN(C(=O)C4CCCO4)CC3)nc(N)c2cc1OC (stereo not drawn) -8.86
CN(C)CCCN1c2ccccc2CCc2ccc(Cl)cc21 -13.9
Cc1ccc(N(CC2=NCCN2)c2cccc(O)c2)cc1 -8.3
CCOC(=O)N1CCC(=C2c3ccc(Cl)cc3CCc3cccnc32)CC1 -9.37
CN1C2CCC1CC(OC(=O)c1c[nH]c3ccccc13)C2 (stereo not drawn) -4.23
CCN(CC)CCOC(=O)C1(C2CCCCC2)CCCCC1 -11.4
CNCCCC12CCC(c3ccccc31)c1ccccc12 -16.7
CC(C)[N+]1(C)[C@@H]2CC[C@H]1CC(OC(=O)C(CO)c1ccccc1)C2 (stereo partly drawn) -11.1
